Screening results from PubChem BioAssay.
Sampled rows, rich in hits. Any-hit rate of the full collection: about 1.9%.
ARNT-TACC3 inh – disruptors of human ARNT/TACC3 interaction | Q9Y6A5 | AlphaScreen His-ARNT PAS-B/GST-TACC3 binding, luminescence; TACC3 fragment carries E629A point mutation | inhibition, % at 9.99 µM | 390,000 compounds, 0.66% hits | AID 623870;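 active = mean inhibition of replicates at least 50% and at least half of replicates each reaching 50%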;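 note: 0% = complete ARNT plus TACC3 wells and 100% = ARNT alone without TACC3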
PglD inh – inhibitors of Campylobacter jejuni PglD acetyltransferase | purified PglD enzyme, DTNB colorimetric CoA detection | inhibition, % at 12.5 µM | 360,000 compounds, 0.098% hits; in the data active = inhibition above about 16%, passing the limit was not always enough
ERp5 block – inhibitors of human ERp5; Q15084; ERp5 insulin aggregation, absorbance 650 nm, 90 min; inhibition, % at 9.99 µM; 350,000 compounds, 0.05% hits; AID 651711;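 active = mean replicate inhibition above about 25%, with every replicate also reaching it, limit read from the data, passing the limit was not always enough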
PDI turbidity – blocks human protein disulfide isomerase activity | P07237 | PDI insulin aggregation turbidity, A650, 90 min | inhibition, % at 10 µM | 350,000 compounds, 0.052% hits;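 active = mean inhibition across replicates of 30% or more, whatever share of single replicates reach that level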
UUG fidelity – yeast start codon fidelity modulation. S. cerevisiae UUG-firefly luciferase reporter, luminescence/redox ratio. activity score, % at 18.7 µM. 0.13% of 350,000 active;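 active = replicate mean at a twofold rise or more, about +100% in these data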;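 also: firefly luciferase made from a UUG start codon reports start codon fidelity; reporter light over untreated wells divided by growth signal over untreated wells; some hits fall short of that in this replicate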
FGF22 binding – binders of recombinant human FGF22 by thermal shift. Q9HCT0. SYPRO orange fluorescence; percent of sucrose octasulfate shift, DMSO zero. activity (Tm shift, normalised), % at 9.99 µM. 340,000 compounds, 1.5% hits. AID 651658;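 active = mean Tm shift, scaled 0 neutral to 100 positive control, at about 1.3% or above, every replicate too, limit read from the data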
An asterisk follows results filed as active.

How did CCOc1ccc(CN2CCN(CCCn3cccn3)CC2CCO)cc1 (stereo not given) do in these assays?
ARNT-TACC3 inh: -8; ERp5 block: -2; PDI turbidity: -5; FGF22 binding: 0

How did COc1cccc2c1OCC(CN1CCN(CCC(C)C)C(CCO)C1)=C2 (stereo not given) do in these assays?
ARNT-TACC3 inh: 6; ERp5 block: 1; PDI turbidity: -2; FGF22 binding: 43*

What do the screens show for `OCCC1CN(Cc2nc3c(s2)CCCC3)CCN1CCc1ccccc1` (stereo not given)?
ERp5 block: 3; PDI turbidity: 15; FGF22 binding: 44*

What do the screens show for `Cc1ncc(CN2CCN(CCc3ccccc3)C(CCO)C2)s1` (stereo not given)?
ARNT-TACC3 inh: -5; PglD inh: 5; ERp5 block: 8; PDI turbidity: -7; UUG fidelity: -13; FGF22 binding: 43

Results for C[C@H]1CN([C@@H](C)CO)C(=O)Cc2cc(NC(=O)c3ccncc3)ccc2O[C@@H]1CN(C)C(=O)Nc1cccc2ccccc12 ?
ARNT-TACC3 inh: -1; PglD inh: 8; ERp5 block: -6; UUG fidelity: -12; FGF22 binding: 0

Results for CCS(=O)(=O)N1[C@@H](CO)[C@H](c2ccccc2)C12CN(C(=O)C1CCCC1)C2 ?
ERp5 block: 3

How did CCOc1ccccc1CN1CCN(Cc2ccc(C)o2)CC1CCO (stereo not given) do in these assays?
ARNT-TACC3 inh: 0; ERp5 block: 1; PDI turbidity: -6; FGF22 binding: 0

How did CCOc1ccccc1CN1CCN(Cc2ccc(C)o2)C(CCO)C1 (stereo not given) do in these assays?
ARNT-TACC3 inh: 6; ERp5 block: 1; PDI turbidity: -8; FGF22 binding: 43*

How did COc1cccc(CN2CCN(CCc3ccccc3)C(CCO)C2)c1OC (stereo not given) do in these assays?
ARNT-TACC3 inh: -4; ERp5 block: 5; PDI turbidity: 2; FGF22 binding: 44*

What do the screens show for `COC1OC2COC(c3ccccc3)OC2C(NC(C)=O)C1OC(C)=O` (stereo not given)?
ERp5 block: 3; PDI turbidity: -3; FGF22 binding: 45*

Results for C[C@@H]1CN([C@H](C)CO)C(=O)Cc2cc(NC(=O)NC3CCCCC3)ccc2O[C@@H]1CN(C)Cc1ccc(C(=O)Nc2ccccc2N)cc1 ?
ERp5 block: 1; FGF22 binding: 0

What do the screens show for `Cc1nnc(SCC2=C(C(=O)O)N3C(=O)C(NC(=O)Cn4nc(C(F)F)c(Cl)c4C)C3SC2)s1` (stereo not given)?
PglD inh: 8; ERp5 block: 8; PDI turbidity: 0; UUG fidelity: -10; FGF22 binding: 43*

What do the screens show for `Cc1nnc(SCC2=C(C(=O)O)N3C(=O)C(NC(=O)Cn4nc(C(F)F)cc4C)C3SC2)s1` (stereo not given)?
ARNT-TACC3 inh: -1; ERp5 block: 4; PDI turbidity: -4; FGF22 binding: 0

What do the screens show for `CC(=O)OCC1=C(C(=O)O)N2C(=O)C(NC(=O)Cn3nc(C(F)F)c(Cl)c3C)C2SC1` (stereo not given)?
ARNT-TACC3 inh: -11; PglD inh: -4; ERp5 block: 3; PDI turbidity: 7; UUG fidelity: -24; FGF22 binding: 43*

Results for CC(O)CNc1nc(Cl)c(C#N)s1 (stereo not given) ?
ARNT-TACC3 inh: -4; ERp5 block: 0; PDI turbidity: 3; FGF22 binding: 43*

Results for COCCNc1nc(Cl)c(C#N)s1 ?
ARNT-TACC3 inh: -3; ERp5 block: 4; PDI turbidity: -1; FGF22 binding: 0

What do the screens show for `COc1ccccc1C(O)(C(=O)NNc1ccccc1C)c1ccccc1OC`?
ARNT-TACC3 inh: 37; ERp5 block: 1; PDI turbidity: -6; FGF22 binding: 43*

How did CN(CC1CCCO1)S(=O)(=O)c1ccc(C(=O)Nc2nc(-c3ccccn3)cs2)cc1 (stereo not given) do in these assays?
ARNT-TACC3 inh: 59*; PglD inh: -6; UUG fidelity: -40

Results for O=C(CC(CC(=O)c1ccccc1)C(=O)O)c1ccccc1 ?
ARNT-TACC3 inh: 0; PglD inh: -7; PDI turbidity: -10; UUG fidelity: -20

Results for O=C(CC(C(=O)O)P(=O)(c1ccccc1)c1ccccc1)c1ccccc1 (stereo not given) ?
ARNT-TACC3 inh: -1; PglD inh: 7; ERp5 block: 4; PDI turbidity: -13; UUG fidelity: 21; FGF22 binding: 43*

Results for COC(=O)c1sc2cc([N+](=O)[O-])cc(SCC(C)C)c2c1N ?
ARNT-TACC3 inh: -3; ERp5 block: 2; PDI turbidity: -16; FGF22 binding: 44*

What do the screens show for `CN(C)CCN1CCN(C2CN(Cc3cn(Cc4ccccc4C(F)(F)F)nn3)S(=O)(=O)C2)CC1` (stereo not given)?
PglD inh: 1; ERp5 block: 0; UUG fidelity: 41; FGF22 binding: 15*

Results for CC(C)Nc1nc(-c2ccccc2CO)c2sccc2n1 ?
PglD inh: 3; ERp5 block: 2; PDI turbidity: -3; UUG fidelity: -5; FGF22 binding: 43*

How did Cc1ccccc1-c1nc(NC(C)C)nc2ccsc12 do in these assays?
PglD inh: 11; ERp5 block: 0; PDI turbidity: -7; UUG fidelity: -19; FGF22 binding: 0

Results for N#C[C@H]1[C@H](c2ccc(-c3ccccc3F)cc2)[C@H](CO)N1C(=O)C1CCC1 ?
ARNT-TACC3 inh: 19; PglD inh: 0; ERp5 block: -4; UUG fidelity: 2; FGF22 binding: 0

How did O=C(/C=C/c1ccccc1)NC(=S)NNC(=O)c1ccco1 do in these assays?
ARNT-TACC3 inh: 52*; PglD inh: 7; PDI turbidity: -8; UUG fidelity: -57

How did CCS(=O)(=O)N1CC2(CN(Cc3ccc(F)cc3)[C@H](CO)c3c2c2ccc(OC)cc2n3C)C1 do in these assays?
FGF22 binding: 0

What do the screens show for `CCS(=O)(=O)c1ccc(OC)c(N=Nc2ccc(O)c3ncccc23)c1`?
ARNT-TACC3 inh: 35; ERp5 block: 4; PDI turbidity: 2; FGF22 binding: 0

How did CCN(CC)S(=O)(=O)c1cc(OC)ccc1N=Nc1ccc(O)c2ncccc12 do in these assays?
ARNT-TACC3 inh: 48*; PglD inh: -1; ERp5 block: -3; PDI turbidity: -3; UUG fidelity: -21; FGF22 binding: 0

Results for CN1C(=O)c2cc(NC(=O)c3ccccc3F)ccc2OC[C@H]2O[C@@H](CC(=O)NCc3ccc4c(c3)OCO4)CC[C@H]21 ?
ARNT-TACC3 inh: -2; PglD inh: 1; ERp5 block: 4; FGF22 binding: 1

Random excerpt: 3 compounds from above.
Results for CC(C)Nc1nc(-c2ccccc2CO)c2sccc2n1 ?
PglD inh: 3; ERp5 block: 2; PDI turbidity: -3; UUG fidelity: -5; FGF22 binding: 43*

What do the screens show for `CN(C)CCN1CCN(C2CN(Cc3cn(Cc4ccccc4C(F)(F)F)nn3)S(=O)(=O)C2)CC1` (stereo not given)?
PglD inh: 1; ERp5 block: 0; UUG fidelity: 41; FGF22 binding: 15*

Results for COC(=O)c1sc2cc([N+](=O)[O-])cc(SCC(C)C)c2c1N ?
ARNT-TACC3 inh: -3; ERp5 block: 2; PDI turbidity: -16; FGF22 binding: 44*
